Values of other authors, collected in US20070203244A1, “INHIBITORS OF MEMBRANE TYPE-1 MATRIX METALLOPROTEINASE FOR THE TREATMENT OF INSULIN-DEPENDENT DIABETES MELLITUS” (priority 2006, published 2007).

Biological target: T1, MMP-2 (Homo sapiens, UniProt P08253)
T1 sequence (P08253 110-660): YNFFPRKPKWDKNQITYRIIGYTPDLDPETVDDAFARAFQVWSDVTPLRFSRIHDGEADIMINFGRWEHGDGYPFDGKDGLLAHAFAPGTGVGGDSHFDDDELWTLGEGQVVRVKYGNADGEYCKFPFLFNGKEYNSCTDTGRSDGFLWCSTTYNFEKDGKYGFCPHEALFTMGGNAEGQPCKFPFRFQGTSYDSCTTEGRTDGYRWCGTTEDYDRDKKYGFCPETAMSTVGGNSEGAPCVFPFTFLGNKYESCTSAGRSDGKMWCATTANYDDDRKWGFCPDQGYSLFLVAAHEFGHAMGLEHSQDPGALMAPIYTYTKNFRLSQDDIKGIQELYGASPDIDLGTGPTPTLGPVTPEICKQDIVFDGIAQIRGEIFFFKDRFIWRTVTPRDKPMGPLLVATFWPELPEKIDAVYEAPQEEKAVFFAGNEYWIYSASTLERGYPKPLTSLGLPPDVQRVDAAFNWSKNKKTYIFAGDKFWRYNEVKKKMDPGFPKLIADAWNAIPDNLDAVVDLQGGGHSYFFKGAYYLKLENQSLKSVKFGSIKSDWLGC
Settings: read-out: EC50 against MMP-2; cited from earlier work

## CC(C)[C@H](NS(=O)(=O)c1ccc(-c2ccc(Br)cc2)cc1)C(=O)O [PD166793, (S)-2-(4′-bromo-biphenyl-4-sulfonylamino)-3-methyl-butyric acid]
  EC50: 47 nM
